# According to patent US9826734B2, “Etherified lactate esters, method for the production thereof and use thereof for enhancing the effect of plant protecting agents” (Clariant International Ltd., priority 2011, dated 2017):
# Key:
# [1] = tested on: leaf cuticles of apple; test: Membrane penetration of thiacloprid through isolated apple leaf cuticles; conditions: 0.2 g/l thiacloprid
# Description: (§1) Surfactants may also promote the uptake of (active) ingredients through membranes such as skin, films, or the plant cuticle. In the form of what is called “finite dose” application, it is known, for the single administration or application of a solution, cream, gel, etc. to a membrane, that the uptake of active ingredient can be influenced, even after wetting has taken place, by certain adjuvants such as surfactants.
# (§2) The potential, independent of the surfactant activity, to promote the leaf uptake of active agrochemical ingredients was determined in membrane penetration experiments with leaf cuticles of apple. […] After they had been dried in air, the cuticles were installed into stainless steel diffusion cells. After application to the original top leaf face and evaporation of the test fluid, i.e., of the aqueous preparations of the active ingredients without or with the etherified lactate esters, the diffusion cells were transferred to thermostated blocks and were filled with aqueous liquid. The water used to prepare the aqueous test liquids was local tap water (known composition). At regular intervals, samples were taken and the penetrated fraction of active ingredient was determined, depending on the test system, either by HPLC or by scintillation measurement. In the system with radiolabeled active ingredient (thiacloprid and fluoxastrobin), the aqueous liquid was a phospholipid suspension and the entire quantity was replaced. […] During the experiment, the temperature in the system (block, diffusion cells, liquids, etc.) and the atmospheric humidity over the spray coating on the cuticle was precisely known and monitored.
# 1) a solution of the insecticide thiacloprid with 0.5 g/l and 3 g/l etherified lactate ester
# [2] = tested on: leaf cuticles of apple; test: Membrane penetration of fluoxastrobin through isolated apple leaf cuticles; conditions: 0.3 g/l fluoxastrobin
# Description: as §1, §2
# 3) a solution of fungicide fluoxastrobin with 0.5 g/l and 2 g/l etherified lactate ester
# [3] = 0.5 g/l etherified lactate ester, 24 h, 20° C./60% RH
# [4] = 0.5 g/l etherified lactate ester, 48 h, 30° C./60% RH
# [5] = 3 g/l etherified lactate ester, 24 h, 20° C./60% RH
# [6] = 3 g/l etherified lactate ester, 48 h, 30° C./60% RH
# [7] = 0.5 g/l etherified lactate ester, 24 h, 15° C./60% RH
# [8] = 0.5 g/l etherified lactate ester, 48 h, 25° C./60% RH
# [9] = 2 g/l etherified lactate ester, 24 h, 15° C./60% RH
# [10] = 2 g/l etherified lactate ester, 48 h, 25° C./60% RH
Substance,"Mean penetration of thiacloprid in % [1, 3]","Mean penetration of thiacloprid in % [1, 4]","Mean penetration of thiacloprid in % [1, 5]","Mean penetration of thiacloprid in % [1, 6]","Mean penetration of fluoxastrobin in % [2, 7]","Mean penetration of fluoxastrobin in % [2, 8]","Mean penetration of fluoxastrobin in % [2, 9]","Mean penetration of fluoxastrobin in % [2, 10]"
2-ethylhexyl lactate 2PO/5EO,10.2%,12.1%,43.2%,49.2%,9.9%,16.2%,14.4%,24.2%
2-ethylhexyl lactate 10EO,11.0%,12.4%,39.6%,46.2%,9.7%,15.9%,16.8%,26.9%
Lauryl lactate 5EO/5PO,18.6%,24.0%,67.4%,76.3%,4.7%,10.0%,12.2%,23.1%
2-ethylhexyl lactate 2EO,5.6%,6.5%,35.5%,43.0%,10.6%,,11.4%,18.9%
2-ethylhexyl lactate 2PO/2EO,11.5%,15.1%,20.3%,23.4%,12.1%,18.6%,16.1%,26.0%
Lauryl lactate 5EO/2PO,13.6%,17.4%,63.9%,74.5%,3.3%,7.5%,12.7%,25.6%

# Results, then the substance that gave them:
"Mean penetration of thiacloprid in % [1, 3]","Mean penetration of thiacloprid in % [1, 4]","Mean penetration of thiacloprid in % [1, 5]","Mean penetration of thiacloprid in % [1, 6]","Mean penetration of fluoxastrobin in % [2, 7]","Mean penetration of fluoxastrobin in % [2, 8]","Mean penetration of fluoxastrobin in % [2, 9]","Mean penetration of fluoxastrobin in % [2, 10]",Substance
12.1%,14.1%,31.4%,39.9%,8.7%,13.9%,13.0%,21.4%,2-ethylhexyl lactate 5EO
14.5%,18.8%,73.3%,80.4%,4.0%,7.8%,11.5%,20.4%,Lauryl lactate 8EO/2PO
10.5%,14.0%,29.9%,41.9%,9.5%,14.1%,13.4%,25.8%,2-ethylhexyl lactate 15EO
8.1%,10.0%,36.9%,47.2%,8.9%,17.5%,13.1%,22.1%,2-ethylhexyl lactate 2PO/10EO
20.5%,27.3%,72.0%,82.9%,3.9%,9.6%,6.8%,19.8%,Lauryl lactate 8EO/5PO
